Source: publication PMC4910395 (Bioorganic & medicinal chemistry, 2015)

The chains behind the UniProt entries cited, without tags or fusion partners. Residues count along the entry.
UniProt Q00959, 23-1464: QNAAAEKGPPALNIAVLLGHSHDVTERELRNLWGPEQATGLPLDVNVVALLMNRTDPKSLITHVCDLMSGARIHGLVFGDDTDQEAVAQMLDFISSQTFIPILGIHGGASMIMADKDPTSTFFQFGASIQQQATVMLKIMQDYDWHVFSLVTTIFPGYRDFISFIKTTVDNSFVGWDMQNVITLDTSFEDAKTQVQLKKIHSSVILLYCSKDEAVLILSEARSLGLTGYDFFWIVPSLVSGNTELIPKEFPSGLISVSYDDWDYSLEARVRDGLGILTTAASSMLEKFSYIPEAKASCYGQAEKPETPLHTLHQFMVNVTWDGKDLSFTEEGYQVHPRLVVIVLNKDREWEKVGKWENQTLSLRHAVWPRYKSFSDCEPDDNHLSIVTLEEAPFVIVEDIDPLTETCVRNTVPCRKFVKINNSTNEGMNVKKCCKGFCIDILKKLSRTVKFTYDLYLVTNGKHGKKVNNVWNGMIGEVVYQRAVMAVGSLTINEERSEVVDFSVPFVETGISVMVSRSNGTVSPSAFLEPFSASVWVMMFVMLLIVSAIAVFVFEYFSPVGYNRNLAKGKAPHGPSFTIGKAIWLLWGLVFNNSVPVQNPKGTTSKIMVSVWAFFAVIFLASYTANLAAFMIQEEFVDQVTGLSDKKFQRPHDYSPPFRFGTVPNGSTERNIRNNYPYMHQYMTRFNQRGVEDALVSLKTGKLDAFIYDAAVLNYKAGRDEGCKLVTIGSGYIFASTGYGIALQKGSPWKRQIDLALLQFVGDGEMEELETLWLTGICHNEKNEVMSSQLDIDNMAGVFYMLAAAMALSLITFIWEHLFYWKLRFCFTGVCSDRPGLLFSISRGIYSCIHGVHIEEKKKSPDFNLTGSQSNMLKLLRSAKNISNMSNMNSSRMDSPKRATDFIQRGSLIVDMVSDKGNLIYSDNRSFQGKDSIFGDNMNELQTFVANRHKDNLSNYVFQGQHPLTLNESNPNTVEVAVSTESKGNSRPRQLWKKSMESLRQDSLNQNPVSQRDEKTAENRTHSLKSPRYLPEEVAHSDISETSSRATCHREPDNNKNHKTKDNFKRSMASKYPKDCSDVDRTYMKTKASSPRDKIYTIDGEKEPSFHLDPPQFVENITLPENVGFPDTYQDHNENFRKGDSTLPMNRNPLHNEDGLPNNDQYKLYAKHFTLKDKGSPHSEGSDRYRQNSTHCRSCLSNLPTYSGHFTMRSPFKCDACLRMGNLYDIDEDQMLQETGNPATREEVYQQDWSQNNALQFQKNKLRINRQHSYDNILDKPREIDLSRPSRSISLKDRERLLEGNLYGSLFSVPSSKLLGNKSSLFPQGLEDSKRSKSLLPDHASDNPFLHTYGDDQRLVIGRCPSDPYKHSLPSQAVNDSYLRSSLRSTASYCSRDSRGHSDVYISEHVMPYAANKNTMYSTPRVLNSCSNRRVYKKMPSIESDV
UniProt Q00960, 27-1482: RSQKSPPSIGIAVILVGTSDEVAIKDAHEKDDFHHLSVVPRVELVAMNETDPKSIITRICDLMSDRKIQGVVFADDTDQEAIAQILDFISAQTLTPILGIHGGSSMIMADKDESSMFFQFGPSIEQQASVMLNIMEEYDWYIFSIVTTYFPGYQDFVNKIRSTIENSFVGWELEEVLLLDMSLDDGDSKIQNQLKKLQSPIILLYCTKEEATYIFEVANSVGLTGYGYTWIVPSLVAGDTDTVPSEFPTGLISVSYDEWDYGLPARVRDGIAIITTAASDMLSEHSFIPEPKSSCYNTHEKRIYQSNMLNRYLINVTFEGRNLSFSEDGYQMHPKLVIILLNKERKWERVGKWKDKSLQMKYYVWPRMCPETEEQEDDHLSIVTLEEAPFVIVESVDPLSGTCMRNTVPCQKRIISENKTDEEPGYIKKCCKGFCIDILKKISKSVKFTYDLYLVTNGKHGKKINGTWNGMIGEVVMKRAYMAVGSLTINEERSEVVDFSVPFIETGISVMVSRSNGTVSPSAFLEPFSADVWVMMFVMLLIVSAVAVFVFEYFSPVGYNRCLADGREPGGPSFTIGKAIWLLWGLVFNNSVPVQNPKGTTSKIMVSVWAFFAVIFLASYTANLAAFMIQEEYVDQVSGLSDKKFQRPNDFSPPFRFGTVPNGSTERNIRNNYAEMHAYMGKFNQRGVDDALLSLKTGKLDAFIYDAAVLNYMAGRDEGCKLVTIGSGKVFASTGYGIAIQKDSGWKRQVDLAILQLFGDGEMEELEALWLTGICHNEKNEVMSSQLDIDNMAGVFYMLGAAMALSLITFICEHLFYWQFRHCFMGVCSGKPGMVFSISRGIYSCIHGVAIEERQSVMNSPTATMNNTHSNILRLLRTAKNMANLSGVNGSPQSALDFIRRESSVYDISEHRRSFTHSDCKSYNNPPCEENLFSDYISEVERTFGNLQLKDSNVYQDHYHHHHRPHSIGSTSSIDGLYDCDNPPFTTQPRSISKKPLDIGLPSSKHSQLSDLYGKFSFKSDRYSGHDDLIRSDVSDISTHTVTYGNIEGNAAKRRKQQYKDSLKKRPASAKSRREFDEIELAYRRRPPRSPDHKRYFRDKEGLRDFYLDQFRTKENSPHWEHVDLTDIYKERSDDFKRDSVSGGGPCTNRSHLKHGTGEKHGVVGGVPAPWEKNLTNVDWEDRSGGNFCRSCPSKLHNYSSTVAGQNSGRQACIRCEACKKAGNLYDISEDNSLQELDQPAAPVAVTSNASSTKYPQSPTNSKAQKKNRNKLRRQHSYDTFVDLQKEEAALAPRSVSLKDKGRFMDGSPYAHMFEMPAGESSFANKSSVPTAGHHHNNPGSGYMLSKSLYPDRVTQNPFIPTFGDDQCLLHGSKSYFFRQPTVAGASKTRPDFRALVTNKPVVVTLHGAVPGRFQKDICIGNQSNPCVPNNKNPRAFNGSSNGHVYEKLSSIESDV

Molecular target: NMDA receptor (NR), channel binding site labeled with [^3H]MK-801 (Rattus norvegicus, UniProt P35439+Q00959+Q00960)
Test: Inhibition of [^3H]MK-801 binding to rat cortical membranes
Conditions: mean ratio; spermine sensitivity

In the case of “N,N-Bis[2-(1-amidino-3-methoxyphenoxy)ethyl]-4-methylbenzenesulfonamide dihydrochloride [compound 15]”, the “[^3H]MK-801 Ratio IC50 (30 µM spm)/IC50 (no spm)” value is reported as 8.11 ± 2.91 (3).
